# Experimental data from PubChem BioAssay AID2098 (Broad Institute, 2009).
# This is a selection; strong and weak results do not stand in their true shares. The source made the active and inactive calls.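 How the source made its calls: active means more than half of replicate wells show activity change below -50%, luminescence cut by over half; inconclusive means some wells, but at most half, below -50%; inactive means no replicate well below -50%.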
# Test: HSF1 inhibitors in luciferase reporter cells, primary screen, cell-based, NIH3T3, luminescence (AID 2098);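 further: luciferase reports HSF-1 transcriptional activity via heat shock element; 0% = median of DMSO wells and -100% = zero luminescence signal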
# Conditions: NIH3T3-HGL HSE-luciferase, MG132-induced, luminescence 8 h; active compounds read low; screened at 7.5 µM (by protocol)
row,SMILES,"activity change, negative = inhibition"
1,O=[As](O)(c1ccccc1Br)c1ccccc1Br,inactive: -1.3%
2,CC1(CBr)Cn2c(nc3ccccc3c2=O)S1 (centres undefined),inactive: 2.59%
3,CN(C(=O)Cc1ccc(Cl)c(Cl)c1)[C@@H]1CCCC[C@H]1N1CCCC1,inactive: 8.24%
4,CC(C)/C=N\N=C(\N)N[N+](=O)[O-],inactive: -11.4%
5,COc1ccccc1CNC(=O)COC(=O)C(O)(c1ccccc1)c1ccccc1,inactive: -3.61%
6,Clc1n[nH]nc1-c1nn[nH][15n]1,inactive: 1.49%
7,CC(C)(C)C(=O)NC(Sc1ncccn1)C(Cl)(Cl)Cl (centres undefined),inactive: 1.79%
8,CN(CCCl)Cc1cc(Cl)c(NC2=NCCN2)c(Cl)c1,inactive: -2.27%
9,CCOP(=O)(Nc1ccc(C)cn1)OCC,inactive: -2.99%
10,CCC1=CC2Cc3nc4ccc(Cl)cc4c(N)c3C(C1)C2 (centres undefined),inactive: 2.3%
11,O=P1(Nc2ccccn2)COc2ccccc2OC1,inactive: -18.1%
12,CCOP(=O)(NC(=NC(C)c1ccccc1)NC(C)c1ccccc1)OCC (centres undefined),inactive: -7.01%
13,Cc1ccc(OCC(=O)OC2CN3CCC2CC3)cc1 (centres undefined),inactive: -8.49%
14,O=[As](O)(c1cccs1)c1cccs1,inactive: 8.42%
15,Nc1cccc([As](=O)(O)c2ccccc2)c1,inactive: -5.17%
16,O=P1(Nc2ncccn2)COc2ccccc2OC1,inactive: -5.69%
17,O=C(/C=C/c1ccccc1)OC1CN2CCC1CC2 (centres undefined),inactive: -0.769%
18,CN(C)C1(CNC(=O)c2ccc(S(C)(=O)=O)cc2)CCCCC1,inactive: 3.54%
19,Cc1nn(-c2ccccc2)c2c1P(=O)(N1CCOCC1)N(C)C(c1ccccc1)=N2 (centres undefined),inactive: 3.88%
20,Cc1ccc(C(=O)OC2CN3CCC2CC3)cc1 (centres undefined),inactive: -0.423%
21,CC1CCC(C(C)C)C(OP(=O)(Nc2ccccn2)c2ccccc2)C1 (centres undefined),inactive: 1.74%
22,CN(C)C(=O)c1cc([N+](=O)[O-])cc2c1-c1c(cc([N+](=O)[O-])cc1[N+](=O)[O-])C2=O,inactive: 7.02%

row,SMILES,"activity change, negative = inhibition"
1,O=[N+]([O-])c1ccc2c(c1)nnn2O,inactive: 1.47%
2,CN(C(=O)Cc1ccc(Cl)c(Cl)c1)[C@H]1CC[C@@]2(CCCO2)C[C@@H]1N1CCCC1,inactive: 0.784%
3,N#CCCN(C(=O)COC(=O)C(O)(c1ccccc1)c1ccccc1)c1ccc(F)cc1,inactive: -0.747%
4,CCOP1(=S)c2c(C)nn(CCC#N)c2N=C(c2ccc(F)cc2)N1C (centres undefined),inactive: -12.4%
5,CN(C(=O)Cc1ccccc1)[C@@H]1CC[C@]2(CCCO2)C[C@H]1N1CCCC1,inactive: -1.54%
6,NC(=O)Nc1ccc([As](=O)(O)O)cc1,inactive: -1.09%
7,O=C(O)COc1ccc([As](=O)(O)O)cc1[N+](=O)[O-],inactive: -5.78%
8,Nc1ccccc1[As](=O)(O)c1ccccc1,inactive: -0.586%
9,CS(=O)(=O)c1cc([N+](=O)[O-])c2no[n+]([O-])c2c1,inactive: 8.66%
10,CCOP1(=S)c2c(C)nn(CCC#N)c2N=C(c2ccccc2F)N1C (centres undefined),inactive: 5.87%
11,O=P(Nc1nccs1)(c1ccccc1)c1nc2ccccc2s1 (centres undefined),inactive: -8.7%
12,O=P(Nc1nccs1)(Oc1ccccc1)Oc1ccccc1,inactive: 13.2%
13,COc1cc(C2NCCC3(OCCO3)C2(C)C)cc(OC)c1OC (centres undefined),inactive: -8.34%
14,CCOP(=O)(Nc1cccc2ccccc12)OCC,inactive: 1.26%
15,CCCOP(=S)(Nc1nc(N)cc(=O)[nH]1)OCCC,inactive: -8.36%
16,Cc1ccc(NCCc2c([N+](=O)[O-])cc([N+](=O)[O-])cc2[N+](=O)[O-])cc1,inactive: 21.9%
17,Nc1cccc2c([As](=O)(O)O)cccc12,inactive: -12%
18,O=[As](O)(c1cccc(O)c1)c1cccc(O)c1,inactive: -5.19%
19,Cc1cccc(OCC(=O)OC2CN3CCC2CC3)c1 (centres undefined),inactive: -11.1%
20,COc1cc(C(=O)NCC2(N3CCOCC3)CCCCC2)cc(Cl)c1OC(C)C,inactive: -0.581%
21,O=[As](O)(O)c1cccnc1,inactive: -3.33%
22,CS(=O)(=O)c1ccc(Cl)c(NC(=O)COC(=O)C(O)(c2ccccc2)c2ccccc2)c1,inactive: -1.26%

row,SMILES,"activity change, negative = inhibition"
1,O=C(OC1CN2CCC1CC2)c1ccc(Cl)cc1 (centres undefined),inactive: -6.44%
2,COc1ccc(N/C(=N/P(=O)(N2CCOCC2)N2CCOCC2)N2CCOCC2)cc1,inactive: -4.07%
3,COc1ccc2nc(NP(=O)(c3ccccc3)c3ccccc3)sc2c1,inactive: 1.73%
4,COc1cc(I)ccc1[As](=O)(O)O,inactive: -2.82%
5,O=C(OC1CN2CCC1CC2)C12CC3CC(CC(C3)C1)C2 (centres undefined),inactive: -7.08%
6,Cc1cc(=O)[nH]c(N[N+](=O)[O-])n1,inactive: 4.14%
7,Cc1c2c(nc3ccccc13)SC(C(Cl)Cl)C2 (centres undefined),inactive: 15.1%
8,CCN(CC)C(=S)SC(NC=O)C(Cl)(Cl)Cl (centres undefined),inactive: 2.89%
9,CC(C)NC(=O)NP(=O)(Oc1ccccc1)Oc1ccccc1,inactive: -0.307%
10,O=[N+]([O-])c1cc([N+](=O)[O-])c(-c2ccn[nH]2)s1,inactive: 15.4%
11,CC(C)c1ccc(OP(=O)(Nc2ccccn2)Oc2ccccc2F)cc1 (centres undefined),inactive: -6.5%
12,ClCCSc1nnc(-c2cccnc2)o1,inactive: -8.26%
13,Cc1ccc2nc3c(c(C)c2c1)CC(C(Cl)Cl)S3 (centres undefined),inactive: 12.5%
14,Cc1ccc(OP(=O)(Nc2ccc([N+](=O)[O-])cn2)Oc2ccc(C)cc2)cc1,inactive: -0.597%
15,O=[As](O)(c1ccc(O)cc1)c1ccccc1O,inactive: -5.25%
16,C[As](=O)(O)c1cccc(C(=O)O)c1,inactive: -8.4%
17,O=[N+]([O-])c1ccc(Nc2ccc(Oc3ccc([N+](=O)[O-])cc3[N+](=O)[O-])cc2)c([N+](=O)[O-])c1,inactive: 3.68%
18,Cc1cc(SC(NC=O)C(Cl)(Cl)Cl)ncn1 (centres undefined),inactive: -1.37%
19,O=P(Nc1ccccn1)(c1cccc2ccccc12)c1cccc2ccccc12,inactive: -0.158%
20,CCOC(=O)Nc1cccc([As](=O)(O)O)c1,inactive: -3.01%
